Laboratory results from PubChem BioAssay AID1259421 (Broad Institute, 2018).
“And” between values parts separate entries of the source, which are not always exact repeats. Identical values can stand only once. The list shows a part of the results, in another mix than the full data. The source made the active and inactive calls. No stated cut-off is given here; in the data, active means activity change below about -70%; inconclusive means no clear call, values can overlap the other calls; inactive means above that.

assay: T. gondii ME49Luc in HeLa cells, luciferase assay, 72 h, no IFN-y (AID 1259421); settings: stronger effect = lower value, concentration not given here

Row | SMILES | activity change, negative = inhibition
1 | O=P1(N(CCCl)CCCl)OCCCN1CCCl (configuration not stated) | inactive: 11.8%
2 | CN(C(=O)Cc1ccc(Cl)c(Cl)c1)[C@H]1CC[C@@]2(CCCO2)C[C@@H]1N1CCCC1 | inactive: 10.8%
3 | CN(C)C1(c2ccccc2)CCC2(CC1)OCCc1c2[nH]c2ccc(F)cc12 (configuration not stated) | inactive: -34.2%
4 | O=P(O)(O)F | inactive: -0.0478%
5 | CN(C(=O)Cc1ccc(Cl)c(Cl)c1)[C@H]1CCCC[C@@H]1N1CCCC1 | inactive: 25% and inactive: 7.73% and inactive: 17.2%
6 | O=C(O[C@H]1CN2CCC1CC2)C1NCc2ccccc2[C@@H]1c1ccccc1 (some centres not stated) | inactive: -1.42%
7 | CN(C(=O)Cc1ccc(Cl)c(Cl)c1)C1CCCCC1N1CCCC1 (configuration not stated) | inactive: 8.47%
